Patent US10792377B2, “Compounds and method for imaging cancer” (Vanderbilt University, priority 2017, dated 2020)

Target: T1, murine COX-2 (Mus musculus, UniProt Q05769)
T1 sequence (Q05769 18-604): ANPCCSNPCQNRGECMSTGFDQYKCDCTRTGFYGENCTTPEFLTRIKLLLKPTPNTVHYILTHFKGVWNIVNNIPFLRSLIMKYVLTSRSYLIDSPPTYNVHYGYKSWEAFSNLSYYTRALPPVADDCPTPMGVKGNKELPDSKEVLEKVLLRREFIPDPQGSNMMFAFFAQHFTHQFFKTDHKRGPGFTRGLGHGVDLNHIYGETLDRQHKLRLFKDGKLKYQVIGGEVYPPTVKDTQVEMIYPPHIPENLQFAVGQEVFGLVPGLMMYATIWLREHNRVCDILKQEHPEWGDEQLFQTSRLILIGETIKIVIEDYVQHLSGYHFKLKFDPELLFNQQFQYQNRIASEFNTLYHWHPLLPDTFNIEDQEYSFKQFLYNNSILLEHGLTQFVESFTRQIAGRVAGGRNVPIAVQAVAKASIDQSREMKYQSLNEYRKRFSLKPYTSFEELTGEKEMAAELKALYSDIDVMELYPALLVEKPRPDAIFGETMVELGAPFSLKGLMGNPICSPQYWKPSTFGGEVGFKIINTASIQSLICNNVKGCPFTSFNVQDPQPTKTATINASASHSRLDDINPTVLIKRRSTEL
Assay: In vitro purified COX-2 inhibition assay (TLC, 14C-arachidonic acid)
Format: biochemical
Conditions: high throughput screening of fluorocoxib and chemocoxib libraries
Description: The in vitro cyclooxygenase (ovine COX-1 or human COX-2) inhibitory activities of these probes were tested by a previously described TLC assay (FIGS. 19-21). Briefly, reaction mixtures of 200 μL consisted of hematin-reconstituted protein in 100 mM Tris-HCl, pH 8.0, 500 μM phenol, and [1-^14C]arachidonic acid (50 μM, about 55-57 mCi/mmol, Perkin Elmer).
Inhibition Assay Using Purified COX-1 and COX-2. Inhibition of purified ovine COX-1 or mouse COX-2 by test compounds was assayed by a previously described method, which quantifies the conversion of [1-^14C]arachidonic acid to [1-^14C]prostaglandin products. Reaction mixtures of 200 ∝L consisted of hematin-reconstituted protein in 100 mM Tris-HCl, pH 8.0, 500 μM phenol, and [1-^14C]arachidonic acid (50 μM, ˜55-57 mCi/mmol, Perkin Elmer). For the time-dependent inhibition assay, hematin-reconstituted COX-1 ([…]) was preincubated at 25° C. for 17 min and 37° C. for 3 min with varying inhibitor concentrations in dimethylsulfoxide followed by the addition of [1-^14C]arachidonic acid (50 μM) for 30 s at 37° C. Reactions were terminated by solvent extraction in diethyl ether:methanol:1 M citrate buffer, pH 4.0 (30:4:1). […] Radiolabeled products were quantified with a radioactivity scanner (Bioscan, Inc., Washington, D.C.). […]

COc1ccc2c(c1)c(CC(=O)NCCCCNC(=O)CCC(=O)O[C@H]1c3cc4c(cc3[C@@H](c3cc(OC)c(OC)c(OC)c3)[C@H]3C(=O)OC[C@@H]31)OCO4)c(C)n2C(=O)c1ccc(Cl)cc1 [chemocoxib A, reference compound]
IC50: 290 nM
